Assay results as given in publication PMC10450872 (ACS Central Science, 2023).

Protein sequences, listed by entry. Tags and fused reporters are not part of them. Lines headed by an entry give the natural chain unless they say otherwise; changes in a name come on top.
UniProt P41145: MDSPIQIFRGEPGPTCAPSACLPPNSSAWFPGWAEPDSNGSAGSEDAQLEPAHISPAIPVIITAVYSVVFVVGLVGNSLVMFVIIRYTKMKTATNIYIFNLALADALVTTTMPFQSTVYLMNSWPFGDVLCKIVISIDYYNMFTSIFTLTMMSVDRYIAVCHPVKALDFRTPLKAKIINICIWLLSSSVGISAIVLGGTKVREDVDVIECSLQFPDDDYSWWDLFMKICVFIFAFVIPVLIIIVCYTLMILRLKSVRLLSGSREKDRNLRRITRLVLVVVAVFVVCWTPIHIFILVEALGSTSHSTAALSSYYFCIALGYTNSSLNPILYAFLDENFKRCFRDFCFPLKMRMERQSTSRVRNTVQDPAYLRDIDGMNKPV

Experiments:
KOR = settings: cited from earlier work
hKOR (OPRK1) = hKOR (OPRK1) (Homo sapiens, UniProt P41145); settings: Table S1; normalized to baseline and maximum response of 10 μM U69,593
hKOR = hKOR (Homo sapiens, UniProt P41145); settings: Table S1; normalized to 10 μM U69,593; values in brackets where the curve did not converge
[1] = to 8-epi-SalA under acidic, basic, and thermal conditions; cited from earlier work
[2] = estimated; cited from earlier work

For C16-bromo-salvinorin A, the “bias factor, G protein signaling over β-arrestin2 recruitment” value (KOR) is listed as 7.7.
For CN(C(=O)Cc1ccccc1)[C@H]1CC[C@@]2(CCCO2)C[C@@H]1N1CCCC1, the cAMP Emax (hKOR (OPRK1)) was 100% and the βarrestin2 Emax (hKOR) was 100%.
In the case of COC(=O)[C@@H]1C[C@H](OC(C)=O)C(=O)[C@H]2[C@@]1(C)CC[C@H]1C(=O)O[C@H](c3ccoc3)C[C@]21C, the “Keq of C8 epimerization” value [1] is listed as 2.5 and the “total human brain content causing psychoactive effects” value [2] is listed as 10 µg.
